What was measured:
ETA receptor = ETA receptor (Homo sapiens, UniProt P25101); test: Endothelin binding inhibition test on human endothelin receptors ([125I]endothelin-1), ETA
Protocol: (§1) Endothelin Binding Inhibition Test on Human Endothelin Recepters
(§2) The human neuroblastoma SK-N-MC cells or the human Giradi heart cells, purchased from Dainippon Seiyaku (Japan), were cultured in minimal essential medium supplemented with fetal calf serum. The cells were collected and homogenized in 10 mM MOPS buffer (pH 7.4) containing 154 mM NaCl, 10 mM KCl, 0.8 mM CaCl2 and 20% sucrose at 4° C. using a polytron homogenizer. The homogenate was then centrifuged at 10,000×g for 15 minutes. The supernatant was centrifuged at 100,000×g for 1 hour at 4° C. Then the pellet was washed with 5 mM HEPES/Tris buffer (pH 7.4). […] After the filtration, the filters were washed with buffer B, and the radioactivity on the filters was measured in a γ counter. Nonspecific binding was determined in the presence of 200 nM endothelin-1. […]
(§3) where (A): for nonspecific binding including 200 nM of unlabeled endothelin-1 as the final concentration, (B): for total binding including labeled endothelin-1 without a test compound, and (C): for binding including labeled endothelin-1 with a concentration of a test compound, show the radioactivity.

By UniProt entry, the sequences of proteins in these tests, tags left out. Residues count along the entry.
UniProt P25101, 21-427 limits assumed: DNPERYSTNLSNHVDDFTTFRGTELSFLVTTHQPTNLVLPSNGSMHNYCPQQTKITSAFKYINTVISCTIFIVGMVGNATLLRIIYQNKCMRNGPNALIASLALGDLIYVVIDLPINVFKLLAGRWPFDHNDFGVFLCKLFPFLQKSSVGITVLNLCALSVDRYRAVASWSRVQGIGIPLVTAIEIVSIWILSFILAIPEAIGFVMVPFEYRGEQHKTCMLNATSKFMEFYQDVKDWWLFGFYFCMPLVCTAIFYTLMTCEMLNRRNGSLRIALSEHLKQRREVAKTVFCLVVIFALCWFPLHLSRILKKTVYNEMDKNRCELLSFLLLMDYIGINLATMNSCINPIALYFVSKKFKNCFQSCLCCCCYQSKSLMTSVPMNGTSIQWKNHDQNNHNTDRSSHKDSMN
UniProt P24530, 27-442 limits assumed: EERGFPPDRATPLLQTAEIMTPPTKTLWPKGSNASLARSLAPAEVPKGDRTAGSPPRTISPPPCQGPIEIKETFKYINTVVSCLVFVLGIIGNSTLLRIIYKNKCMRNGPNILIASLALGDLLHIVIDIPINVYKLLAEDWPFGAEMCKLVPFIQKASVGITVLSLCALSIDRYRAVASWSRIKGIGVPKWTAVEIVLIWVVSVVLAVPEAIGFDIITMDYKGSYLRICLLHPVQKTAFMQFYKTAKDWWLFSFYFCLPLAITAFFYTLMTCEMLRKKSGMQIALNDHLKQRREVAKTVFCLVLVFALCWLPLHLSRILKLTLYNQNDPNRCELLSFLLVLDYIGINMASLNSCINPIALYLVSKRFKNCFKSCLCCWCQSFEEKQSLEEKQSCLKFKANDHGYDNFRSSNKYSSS

ETB receptor = ETB receptor (Homo sapiens, UniProt P24530); test: Endothelin binding inhibition test on human endothelin receptors ([125I]endothelin-1), ETB; details: read-out: ETB (IC50, inhibition of [125I]endothelin-1 binding); human cell membranes, 20 pM [125I]endothelin-1, 4 hours incubation
Protocol: as §1, §2, §3

## COc1ccc([C@@H]2c3nc(NC(C)C)ccc3[C@H](c3ccc4c(c3)OCO4)[C@H]2C(=O)O)c(CC(C)C(=O)O)c1 (single isomer, unassigned)
ETA receptor; ratio of IC50 values
  ETB/ETA: ETB/ETA = 24
ETA receptor; read-out: ETA (IC50, inhibition of [125I]endothelin-1 binding), human cell membranes, 20 pM [125I]endothelin-1, 4 hours incubation
  IC50: 42 pM
ETB receptor
  IC50: 1000 pM

Reference: US6413979B1, “Substituted 5-(2,2-difluoro-1,3-benzodioxol-5-yl) cyclopentenopyridine derivative” (Banyu Pharmaceutical Co., Ltd., priority 1998, dated 2002)
